Measured values taken from PubChem BioAssay AID588334 (Broad Institute, 2011).
The list shows a part of the results, in another mix than the full data. Activity calls are given as the source filed them.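 The calls were made as follows: active = mean activation of at least 80% with every replicate also reaching 80%; inconclusive = mean reaches 80% but some replicate falls short; inactive = the rest.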

Experiment: activators of MITF-driven TRPM1 promoter reporter, primary screen, cell-based, SK-MEL-5, luciferase, single point (AID 588334);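 also: 0% = neutral control wells and 100% = parthenolide positive control wells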
Conditions: SK-MEL-5 TRPM1-promoter luciferase, 24 h; at 12.5 µM; hits give high values; % of positive control, neutral wells = 0

**Q.** With `O=C(NCC1(N2CCCCC2)CCCCC1)c1cccc(C(F)(F)F)c1` as the compound, how does the activation read?
**A.** The activation was inactive: 2.67%.

**Q.** For `COc1ccc(NC2CCN(C(=O)OC(C)(C)C)CC2)cc1`, which activation is on record?
**A.** The activation was inactive: -5.19%.

**Q.** With `CC(C)c1ccc(C(=O)NCC2(N3CCOCC3)CCCCC2)cc1` as the compound, how does the activation read?
**A.** Its activation is inactive: 35.5%.

**Q.** With `CN1CCN(CCOC(=O)C(O)(c2ccccc2)c2ccccc2)CC1` as the compound, how does the activation read?
**A.** The activation was inactive: -5.2%.

**Q.** With `O=C(NCC1(N2CCOCC2)CCCCC1)c1cc(=O)[nH]c2ccccc12` as the compound, how does the activation read?
**A.** The activation was inactive: -4.53%.

**Q.** For `COc1cc(C(=O)NCC2(N3CCCCC3)CCCCC2)ccc1OC(F)F`, which activation is on record?
**A.** The activation was inactive: 7.53%.

**Q.** For `O=C(NCC1(N2CCCCC2)CCCCC1)c1ccc(OC(F)F)cc1`, which activation is on record?
**A.** The activation was inactive: 19.1%.

**Q.** With `O=C(NCC1(N2CCCCC2)CCCCC1)c1cccc([N+](=O)[O-])c1` as the compound, how does the activation read?
**A.** Its activation is inactive: -6.18%.

**Q.** With `CSc1ccc(C(=O)NCC2(N3CCOCC3)CCCCC2)cc1` as the compound, how does the activation read?
**A.** Its activation is inactive: 12.2%.

**Q.** With `N#CC1(Nc2ccccc2)CCN(CCc2ccccc2)CC1` as the compound, how does the activation read?
**A.** The activation was inactive: 0.155%.

**Q.** Which activation does the source give for `O=C(NCC1(N2CCCCC2)CCCCC1)c1cncc(Br)c1` here?
**A.** The activation was inactive: 5.03%.

**Q.** For `CN1CCC(Nc2cccc(F)c2)CC1`, which activation is on record?
**A.** Its activation is inactive: 6.62%.

**Q.** For `CCCOc1ccc(C(=O)NCC2(N(C)C)CCCCC2)cc1OC`, which activation is on record?
**A.** The activation was inactive: -8.59%.

**Q.** For `CN(C)c1cccc(C(=O)NCC2(N3CCCCC3)CCCCC2)c1`, which activation is on record?
**A.** The activation was inactive: 0.897%.

**Q.** For `COc1ccc(CN(CCCl)CCCl)cc1Cl`, which activation is on record?
**A.** Its activation is inactive: -8.85%.

**Q.** With `CC(C)c1ccc(NC2CCN(C(=O)OC(C)(C)C)CC2)cc1` as the compound, how does the activation read?
**A.** The activation was inactive: 50.1%.

**Q.** With `O=C(NCC1(N2CCOCC2)CCCCC1)c1cc(F)c(F)cc1Cl` as the compound, how does the activation read?
**A.** The activation was inactive: 1.35%.

**Q.** With `COc1cc(OC)c(C(=O)NCC2(N(C)C)CCCCC2)cc1OC` as the compound, how does the activation read?
**A.** Its activation is inactive: -4.97%.

**Q.** For `O=C(NCC1(N2CCOCC2)CCCCC1)c1cc2ccccc2o1`, which activation is on record?
**A.** Its activation is inactive: -7.81%.

**Q.** Which activation does the source give for `Cc1cc(C)cc(N(C(=O)c2ccccc2)C2CCN(C(=O)OC(C)(C)C)CC2)c1` here?
**A.** The activation was inactive: -21%.

**Q.** For `O=C(NCC1(N2CCCCC2)CCCCC1)c1ccc(Cl)nc1`, which activation is on record?
**A.** The activation was inactive: 12.5%.

**Q.** Which activation does the source give for `CCOC(=O)N1CCC(Nc2ccc(OC)cc2)CC1` here?
**A.** The activation was inactive: -8.41%.

**Q.** With `COc1ccc(Cl)cc1C(=O)NCC1(N2CCOCC2)CCCCC1` as the compound, how does the activation read?
**A.** Its activation is inactive: -4.87%.

**Q.** With `O=C(OC1CN2CCC1CC2)C1c2ccccc2Oc2ccccc21` (configuration not stated) as the compound, how does the activation read?
**A.** The activation was inactive: 2.77%.

**Q.** For `O=C(NCC1(N2CCCCC2)CCCCC1)c1ccc(Cl)s1`, which activation is on record?
**A.** Its activation is inactive: 8.68%.

**Q.** Which activation does the source give for `N#CC1(Nc2ccccc2)CCN(Cc2ccccc2)CC1` here?
**A.** The activation was inactive: 0.827%.

**Q.** With `O=C(NCC1(N2CCCCC2)CCCCC1)c1cccs1` as the compound, how does the activation read?
**A.** Its activation is inactive: 12.7%.

**Q.** For `O=C(NCC1(N2CCCCC2)CCCCC1)c1ccc(=O)[nH]c1`, which activation is on record?
**A.** Its activation is inactive: 12.6%.

**Q.** Which activation does the source give for `COc1ccc(C(=O)NCC2(N3CCCCC3)CCCCC2)c(OC)c1OC` here?
**A.** The activation was inactive: -12.3%.

**Q.** Which activation does the source give for `CC(C)(C)OC(=O)N1CCC(N(C(=O)c2ccccc2)c2ccc(F)cc2)CC1` here?
**A.** Its activation is inactive: -6.79%.

**Q.** Which activation does the source give for `COc1ccc(C(=O)NCC2(N3CCCCC3)CCCCC2)cc1` here?
**A.** Its activation is inactive: 14.1%.

**Q.** Which activation does the source give for `Cc1cccc(NC2(C#N)CCN(Cc3ccccc3)CC2)c1` here?
**A.** Its activation is inactive: -2.35%.

**Q.** Which activation does the source give for `CSc1ccccc1C(=O)NCC1(N2CCCCC2)CCCCC1` here?
**A.** Its activation is inactive: 1.88%.

**Q.** With `COc1cc(C(=O)NCC2(N(C)C)CCCCC2)ccc1OC(F)F` as the compound, how does the activation read?
**A.** Its activation is inactive: 0.884%.

**Q.** Which activation does the source give for `CCOc1ccc(C)cc1CN(CCCl)CCCl` here?
**A.** The activation was inactive: -11.1%.

**Q.** Which activation does the source give for `O=C1CCN(Cc2ccccc2)CC1` here?
**A.** The activation was inactive: 4.11%.

**Q.** Which activation does the source give for `CCOC(=O)N1CCC(Nc2ccc(F)cc2)CC1` here?
**A.** Its activation is inactive: -0.507%.

**Q.** With `COc1ccc(NC2CCN(CCc3ccccc3)CC2)c(OC)c1` as the compound, how does the activation read?
**A.** The activation was inactive: -3.34%.

**Q.** Which activation does the source give for `O=C(NCC1(N2CCCCC2)CCCCC1)c1ccc(F)cc1` here?
**A.** Its activation is inactive: -3.36%.

**Q.** Which activation does the source give for `CCCCOc1ccc(C(=O)NCC2(N3CCOCC3)CCCCC2)cc1` here?
**A.** The activation was inactive: 9.01%.

**Q.** With `O=P1(N(CCCl)CCCl)SCCCS1` as the compound, how does the activation read?
**A.** The activation was inactive: -4.61%.

**Q.** With `CCN1CCC(Nc2cccc(F)c2)CC1` as the compound, how does the activation read?
**A.** Its activation is inactive: 3.37%.

**Q.** Which activation does the source give for `Cc1ccccc1NC1(C#N)CCN(Cc2ccccc2)CC1` here?
**A.** Its activation is inactive: 12.4%.

**Q.** Which activation does the source give for `Cn1c(=O)[nH]cc(N(CCCl)CCCl)c1=O` here?
**A.** The activation was inactive: -7.8%.

**Q.** Which activation does the source give for `CN(C)c1ccc(C(=O)NCC2(N3CCCCC3)CCCCC2)cc1` here?
**A.** Its activation is inactive: 12.8%.

**Q.** With `O=C(NCC1(N2CCCCC2)CCCCC1)c1ccco1` as the compound, how does the activation read?
**A.** The activation was inactive: 11%.

**Q.** With `CC(=O)N(c1ccccc1)C1CCNCC1` as the compound, how does the activation read?
**A.** The activation was inactive: -2.3%.

**Q.** With `Cc1ccc(NC2(C#N)CCN(Cc3ccccc3)CC2)cc1` as the compound, how does the activation read?
**A.** The activation was inactive: 1.33%.

**Q.** For `Fc1ccccc1NC1CCN(Cc2ccccc2)CC1`, which activation is on record?
**A.** The activation was inactive: 7.7%.

**Q.** Which activation does the source give for `Cc1ccc(C(=O)NCC2(N3CCCCC3)CCCCC2)o1` here?
**A.** The activation was inactive: -1.55%.

**Q.** Which activation does the source give for `CCC(CO)(C(=O)OC1CN2CCC1CC2)c1ccccc1` (configuration not stated) here?
**A.** The activation was inactive: 1.98%.

**Q.** With `COc1cccc(C(=O)N(c2cc(C)cc(C)c2)C2CCN(C(=O)OC(C)(C)C)CC2)c1` as the compound, how does the activation read?
**A.** Its activation is inactive: -0.872%.

**Q.** With `COc1cc(OC)cc(C(=O)NCC2(N3CCOCC3)CCCCC2)c1` as the compound, how does the activation read?
**A.** The activation was inactive: 0.148%.

**Q.** With `CCOc1ncccc1C(=O)NCC1(N2CCOCC2)CCCCC1` as the compound, how does the activation read?
**A.** Its activation is inactive: -4.66%.

**Q.** With `CCCOc1ccc(C(=O)NCC2(N(C)C)CCCCC2)cc1` as the compound, how does the activation read?
**A.** The activation was inactive: -7.76%.

**Q.** Which activation does the source give for `O=C(O)C1(Nc2ccccc2)CCN(Cc2ccccc2)CC1` here?
**A.** The activation was inactive: -7.15%.

**Q.** For `CC(C)(C)OC(=O)N1CCC(Nc2ccccc2)CC1`, which activation is on record?
**A.** Its activation is inactive: 8.22%.

**Q.** Which activation does the source give for `N/C(=N\O)c1c(N)no[n+]1[O-]` here?
**A.** The activation was inactive: -4.52%.

**Q.** Which activation does the source give for `O=C(OC1CN2CCC1CC2)C1c2ccccc2C=Cc2ccccc21` (configuration not stated) here?
**A.** Its activation is inactive: -1.56%.

**Q.** With `O=C(NCC1(N2CCOCC2)CCCCC1)c1cc(Br)ccc1Cl` as the compound, how does the activation read?
**A.** The activation was inactive: 8.86%.

**Q.** With `COc1cc(C(=O)NCC2(N3CCOCC3)CCCCC2)cc(OC)c1C` as the compound, how does the activation read?
**A.** Its activation is inactive: 8.85%.

**Q.** For `COc1ccc(C(=O)NCC2(N3CCOCC3)CCCCC2)cc1OC`, which activation is on record?
**A.** Its activation is inactive: 9.63%.

**Q.** Which activation does the source give for `CCCN1CCC(Nc2cc(OC)cc(OC)c2)CC1` here?
**A.** Its activation is inactive: -4.33%.

**Q.** Which activation does the source give for `c1ccc(CN2CCC(Nc3ccccc3)CC2)cc1` here?
**A.** The activation was inactive: -1.47%.

**Q.** With `CN(C)C1(CNC(=O)c2cccc(C#N)c2)CCCCC1` as the compound, how does the activation read?
**A.** The activation was inactive: 0.535%.

**Q.** For `CC(C)(C)OC(=O)N1CCC(N(C(=O)c2ccccc2)c2ccc(Cl)cc2)CC1`, which activation is on record?
**A.** The activation was inactive: -4.03%.

**Q.** Which activation does the source give for `N#Cc1ccc(C(=O)NCC2(N3CCCCC3)CCCCC2)cc1` here?
**A.** The activation was inactive: 2.9%.
